# Measurements: BindingDB's records for patent US9694016 (Novartis AG, 2017)
# Sequences of proteins named here, by UniProt entry; tags and fusion partners are left off.
# UniProt P04049, whole entry Y340E/Y341E: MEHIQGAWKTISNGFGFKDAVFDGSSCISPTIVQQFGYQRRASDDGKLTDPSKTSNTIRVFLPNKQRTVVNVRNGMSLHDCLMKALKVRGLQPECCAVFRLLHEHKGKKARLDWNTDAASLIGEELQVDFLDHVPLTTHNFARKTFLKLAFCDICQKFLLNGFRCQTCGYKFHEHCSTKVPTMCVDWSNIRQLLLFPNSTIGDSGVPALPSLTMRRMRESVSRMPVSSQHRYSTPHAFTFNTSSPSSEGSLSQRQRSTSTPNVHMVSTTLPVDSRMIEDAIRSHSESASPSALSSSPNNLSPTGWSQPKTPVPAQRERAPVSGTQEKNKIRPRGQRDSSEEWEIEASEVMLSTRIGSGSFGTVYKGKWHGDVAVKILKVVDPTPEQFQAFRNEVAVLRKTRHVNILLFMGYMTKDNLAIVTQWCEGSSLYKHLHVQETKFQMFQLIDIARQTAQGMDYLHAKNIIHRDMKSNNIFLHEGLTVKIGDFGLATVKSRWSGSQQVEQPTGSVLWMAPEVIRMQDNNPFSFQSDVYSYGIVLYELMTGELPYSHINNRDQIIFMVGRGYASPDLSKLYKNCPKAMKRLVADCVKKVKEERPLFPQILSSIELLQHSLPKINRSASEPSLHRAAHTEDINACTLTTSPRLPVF
# Target: RAF proto-oncogene serine/threonine-protein kinase [Y340E,Y341E] (Human, UniProt P04049, Y340E/Y341E)
# Assay: Raf Activity Assay
# Details: pH 7.5; 25 °C
smiles,measurement,value
"Cc1ncc(NC(=O)c2cccc(C(F)(F)F)c2)cc1-c1c[nH]c(=O)c(N2CCOCC2)c1 [US9694016, 988]",IC50,0.97 nM
